Paper PMC3229538, “Inhibition of G Protein-Activated Inwardly Rectifying K^+ Channels by Different Classes of Antidepressants” (PLoS ONE, 2011)
Where a name gives a salt, the structure may show the parent alone. Each block holds one compound with its values, some of them ahead of it.

Columns and labels:
GIRK1/2 channels = target: T1, GIRK1/2 channels (Mus musculus, UniProt P48542+P63250); assay: Inhibition of basal GIRK currents, Xenopus oocyte expression assay, two-electrode voltage clamp; type: cell-based; conditions: for n H (Hill coefficient): basal GIRK currents; for IC25: concentration reducing basal GIRK currents by 25%
T1 construct: expressed in transfected cells; host or cells: Xenopus laevis oocytes injected with in vitro transcribed mRNA
T1 sequence (P63250 1-501): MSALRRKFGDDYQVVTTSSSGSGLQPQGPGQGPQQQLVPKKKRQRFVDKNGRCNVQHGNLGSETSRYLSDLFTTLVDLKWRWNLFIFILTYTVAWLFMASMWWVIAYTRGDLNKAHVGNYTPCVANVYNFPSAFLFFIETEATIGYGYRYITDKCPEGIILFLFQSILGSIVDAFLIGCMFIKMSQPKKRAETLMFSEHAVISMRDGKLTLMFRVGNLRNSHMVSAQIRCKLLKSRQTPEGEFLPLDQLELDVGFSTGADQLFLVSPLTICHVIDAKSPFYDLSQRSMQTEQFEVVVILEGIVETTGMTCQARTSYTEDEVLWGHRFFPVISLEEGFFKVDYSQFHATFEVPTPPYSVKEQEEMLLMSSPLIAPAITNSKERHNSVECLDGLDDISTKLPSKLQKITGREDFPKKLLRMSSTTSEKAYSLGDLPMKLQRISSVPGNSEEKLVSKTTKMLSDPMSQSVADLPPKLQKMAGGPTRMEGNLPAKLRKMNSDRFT
T1 sequence (P48542 1-425): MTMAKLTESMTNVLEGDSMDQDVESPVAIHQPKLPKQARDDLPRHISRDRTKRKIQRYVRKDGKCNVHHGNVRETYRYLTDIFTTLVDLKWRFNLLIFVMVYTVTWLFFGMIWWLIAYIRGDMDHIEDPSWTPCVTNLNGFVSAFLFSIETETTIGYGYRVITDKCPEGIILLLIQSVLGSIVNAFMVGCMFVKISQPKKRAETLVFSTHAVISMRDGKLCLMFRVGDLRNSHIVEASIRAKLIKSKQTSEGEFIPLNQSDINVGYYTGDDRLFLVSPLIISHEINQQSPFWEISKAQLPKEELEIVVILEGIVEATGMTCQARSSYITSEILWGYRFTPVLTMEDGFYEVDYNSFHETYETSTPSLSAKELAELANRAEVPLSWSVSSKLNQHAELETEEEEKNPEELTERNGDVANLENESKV
Method: (§1) Microelectrodes were filled with 3 M KCl. […]. The data are expressed as mean ± SEM, and n is the number of oocytes tested. The statistical analysis of differences between groups was performed using paired t-test, one-way analysis of variance (ANOVA), or two-way ANOVA followed by the Tukey-Kramer post hoc test. Values of P<0.05 were considered statistically significant.

GIRK1/4 channels = target: T2, GIRK1/4 channels (Mus musculus, UniProt P48545+P63250); assay: as above; type: cell-based; conditions: for n H (Hill coefficient): basal GIRK currents; for IC25: concentration reducing basal GIRK currents by 25%
T2 construct: expressed in transfected cells; host or cells: Xenopus laevis oocytes injected with in vitro transcribed mRNA
T2 sequence (P63250 1-501): T1 sequence (P63250 1-501)
T2 sequence (P48545 1-419): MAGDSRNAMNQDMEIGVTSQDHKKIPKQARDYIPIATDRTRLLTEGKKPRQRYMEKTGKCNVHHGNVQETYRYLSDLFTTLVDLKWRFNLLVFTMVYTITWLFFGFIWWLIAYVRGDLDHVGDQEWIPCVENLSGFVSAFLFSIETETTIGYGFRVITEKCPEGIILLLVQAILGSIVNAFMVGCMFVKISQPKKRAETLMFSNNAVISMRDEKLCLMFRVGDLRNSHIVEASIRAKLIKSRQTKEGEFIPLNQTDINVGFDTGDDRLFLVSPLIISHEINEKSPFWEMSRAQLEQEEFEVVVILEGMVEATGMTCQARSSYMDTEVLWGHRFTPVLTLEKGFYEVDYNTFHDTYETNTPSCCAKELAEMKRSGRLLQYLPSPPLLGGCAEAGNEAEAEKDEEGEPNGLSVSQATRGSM
Method: as §1

[1] = cited from earlier work
[2] = target: T3, GIRK1/2 channels activated by GTPγS (Mus musculus, UniProt P48542+P63250); assay: Inhibition of total GIRK currents (GTPγS-induced and basal) in GTPγS-injected oocytes; type: cell-based
T3 construct: expressed in transfected cells; host or cells: Xenopus laevis oocytes injected with in vitro transcribed mRNA
T3 sequence (P63250 1-501): T1 sequence (P63250 1-501)
T3 sequence (P48542 1-425): T1 sequence (P48542 1-425)
Text: Microelectrodes were filled with 3 M KCl. […] GIRK channels are activated by various Gi/o-protein-coupled receptors through the direct action of G-protein βγ subunits released from the heterotrimeric G-protein complex, [33].

[3] = target: GIRK1/2 channels activated by ethanol (Mus musculus, UniProt P48542+P63250)
[4] = 1000 µM, read-out: % max (percentage inhibition of basal GIRK currents at the highest concentration tested)
[5] = read-out: % max (percentage inhibition of basal GIRK currents at the highest concentration tested)

inhibition at 100 µM (GIRK1/2 channels; 100 µM, −70 mV, hK solution): 45.6 ± 4.4%
inhibition at 1000 µM (GIRK1/2 channels; [4]): 58.9 ± 2.9%
n H (Hill coefficient) (GIRK1/2 channels): 0.87±0.03
IC25 (GIRK1/2 channels): 21.5 ± 8.3 µM
inhibition at 100 µM (GIRK1/4 channels; 100 µM, −70 mV, hK solution): 27.6 ± 4%
inhibition at 1000 µM (GIRK1/4 channels; [4]): 36 ± 1.6%
n H (Hill coefficient) (GIRK1/4 channels): 0.87±0.07
IC25 (GIRK1/4 channels): 39.7 ± 15.8 µM
SMILES: Clc1ccc2c(c1)C(N1CCNCC1)=Nc1ccccc1O2 [amoxapine, Amoxapine]
concentrations in cases of overdose [1]: ≤ 57.4 µM

SMILES: CN[C@H]1CC[C@@H](c2ccc(Cl)c(Cl)c2)c2ccccc21 [sertraline, Sertraline hydrochloride]
effect on outward GIRK currents (GIRK1/2 channels; 30 µM, K4 solution 4 mM K+, holding potential −10 mV): reversibly reduced
voltage dependence of GIRK current inhibition at the end of the voltage pulses (GIRK1/2 channels; 30 µM, −120 to −40 mV): voltage-independent
current response in K+-free ND98 solution (GIRK1/2 channels; 100 µM, ND98 solution 98 mM Na+): 3.0±1.8 nA
% inhibition of the Ba2+-sensitive current components during application of 3 mM Ba2+ (GIRK1/2 channels; additional 100 µM during 3 mM Ba2+): less than 1%
reduction of inward currents during application of 3 mM Ba2+ (GIRK1/2 channels; additional 100 µM during 3 mM Ba2+, hK solution): 4.5±3.5 nA
n H (Hill coefficient) (GIRK1/2 channels): 1.02±0.05
IC25 (GIRK1/2 channels): 6.9 ± 0.6 µM
effect of extracellular pH on percentage inhibition of GIRK channels (GIRK1/2 channels; extracellular pH 7.4 and 9.0): not significantly affected
basal currents, % of untreated control current (GIRK1/2 channels; intracellularly applied, approximately 225 µM, oocytes that expressed GIRK channels): 92.5±1.6%
inhibition at 500 µM (GIRK1/2 channels; [5]): 73.7 ± 2.9%
n H (Hill coefficient) (GIRK1/4 channels): 0.89±0.09
IC25 (GIRK1/4 channels): 7.0 ± 1.0 µM
inhibition at 30 µM (GIRK1/4 channels; read-out: % inhibition of 3 mM Ba2+-sensitive current components): 51.6 ± 4.3%
inhibition at 300 µM (GIRK1/4 channels; [5]): 63.7 ± 3.5%
IC25 [2]: 5.5 ± 0.7 µM
n H [2]: 1.24±0.09
n H ([3]; GIRK currents induced by 100 mM ethanol): 0.87±0.17
IC25 ([3]; GIRK currents induced by 100 mM ethanol, extracellular application): 6.2 ± 1.4 µM
ethanol-induced GIRK currents, % of untreated control current ([3]; intracellularly applied, approximately 225 µM, 100 mM ethanol): 104.9±9.1%
concentrations in cases of overdose [1]: up to 13.7 µM
